In one data set the test system is spinal motor neurons. Nature of the data set: Neuroprotection assay: THA neurotoxicity in spinal cord slice cultures. As to conditions: THA 200 μM + compound 10 μM, primary cultures of spinal motor neurons.
Another data set addresses CyP A (Homo sapiens, UniProt P62937). As to conditions: 10 µM.

Chains of the proteins cited; added tags and fusions are not shown.
UniProt P62937, whole entry: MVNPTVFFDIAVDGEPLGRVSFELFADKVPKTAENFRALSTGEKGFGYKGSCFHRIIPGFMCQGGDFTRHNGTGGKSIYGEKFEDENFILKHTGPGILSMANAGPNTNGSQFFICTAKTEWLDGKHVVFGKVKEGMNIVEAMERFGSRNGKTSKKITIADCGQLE

Molecules are shown by their SMILES.

As to `O=C(Nc1cccc(NC(=O)Nc2ccon2)c1)Nc1ccon1`, the “neuroprotective activity (number of viable neurons)” value (“neuroprotective activity” for short) in the data set with spinal motor neurons is listed as “displays neuroprotective activity”.

As for `O=C(NCC(c1ccccc1)c1ccccc1)Nc1cccc(NC(=O)NCC(c2ccccc2)c2ccccc2)c1`, the inhibition (in general, the change of the read-out against control, counted positive when it falls) on CyP A is 100%.

Take `Cc1ccc(NC(=O)N(Cc2ccccc2)Cc2ccccc2)cc1NC(=O)N(Cc1ccccc1)Cc1ccccc1`: the “neuroprotective activity” value with spinal motor neurons is recorded as “displays neuroprotective activity”.

Turning to `COc1cccc(NC(=O)NC2CCCC(NC(=O)Nc3cccc(OC)c3)C2)c1` (stereo not shown), the “neuroprotective activity” value with spinal motor neurons is “displays neuroprotective activity”.

Source of the values: patent US6677376B1, “Non-peptidic cyclophilin binding compounds and their use” (Guilford Pharmaceuticals, Inc., priority 1999, dated 2004).
